Source: US6051718A, “PDE IV inhibiting 2-cyanoiminoimidazole derivatives” (Janssen Pharmaceutica, N.V., priority 1996, dated 2000)

By UniProt entry, the sequences of proteins in these tests, tags left out. Where a name states a change or a piece, a line headed by the entry shows the natural chain unless it says otherwise.
UniProt Q07343: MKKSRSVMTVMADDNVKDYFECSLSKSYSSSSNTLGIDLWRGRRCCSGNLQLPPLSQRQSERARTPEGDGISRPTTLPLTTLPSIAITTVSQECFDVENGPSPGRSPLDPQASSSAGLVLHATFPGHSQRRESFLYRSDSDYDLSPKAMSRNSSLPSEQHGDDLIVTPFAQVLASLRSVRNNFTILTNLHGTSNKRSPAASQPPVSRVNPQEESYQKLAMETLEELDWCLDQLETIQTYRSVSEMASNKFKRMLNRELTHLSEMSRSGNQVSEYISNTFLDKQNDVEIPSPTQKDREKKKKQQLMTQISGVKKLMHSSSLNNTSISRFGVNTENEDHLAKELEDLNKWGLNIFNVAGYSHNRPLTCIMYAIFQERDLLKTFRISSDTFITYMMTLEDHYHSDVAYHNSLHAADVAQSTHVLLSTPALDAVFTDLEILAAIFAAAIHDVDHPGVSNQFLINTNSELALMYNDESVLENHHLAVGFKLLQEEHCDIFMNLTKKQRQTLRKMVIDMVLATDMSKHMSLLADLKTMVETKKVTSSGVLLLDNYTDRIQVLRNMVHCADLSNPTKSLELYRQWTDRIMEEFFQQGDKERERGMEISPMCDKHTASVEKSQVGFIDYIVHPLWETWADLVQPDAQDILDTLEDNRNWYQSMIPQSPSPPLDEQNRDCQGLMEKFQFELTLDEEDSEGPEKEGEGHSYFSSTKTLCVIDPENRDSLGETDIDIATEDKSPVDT

Biological target: T1, recombinant human MNL phosphodiesterase PDE IV B (Homo sapiens, UniProt Q07343)
T1 construct: made in house
Assay: Inhibition of recombinant human mononuclear lymphocyte (MNL) phosphodiesterase type IV B produced in insect cells with a baculovirus vector
Assay type: biochemical
Conditions: 3H-cAMP 0.8 μM, 10 minutes, 37° C., pH 8, DMSO 1%
Experimental: Example C.1: Inhibition of Recombinant Human Mononuclear Lymphocyte (MNL) Phosphodiesterase Type IV B Produced in Insect Cells with a Baculovirus Vector
The alleviating and/or curing effect of the instant compounds on allergic and atopic diseases was assessed by an in vitro assay system to detect an inhibiting effect on the recombinant human MNL phosphodiesterase type IV B.
Seventy-two hours after infection with recombinant baculovirus, the insect cells were harvested and pelleted at 500 g for 5 minutes. The cells were lysed in 10 ml lysis-buffer consisting of 20 mM Tris, 10 mM EGTA, 2 mM Na2 EDTA, 1% Triton-X-100, 1 mM Na3 VO4, 10 mM NaF, 2 μg/ml of leupeptine, pepstatine and aprotinine, 0.3 μg/ml benzamidine and 100 μg/ml TPCK pH 7.5. After 5 minutes on ice, solubilized cells were centrifuged at 4000 rpm for 15 minutes at 4° C. The resulting supernatant was filtered through a 0.45 μm filter (Millipore) and brought to TBS buffer (50 mM Tris, 150 mM NaCl pH 7.4).
After washing the column with equilibration buffer, PDE IV was eluted in 1.5 ml fractions containing 37.5 μl 1M Tris pH 8. The fractions were dialyzed overnight against 20 mM Tris, 2 mM Na2 EDTA and 400 mM NaCl pH 7.5 and tested for PDE IV activity. […]
The inhibiting effect of the present compounds on recombinant human MNL phosphodiesterase PDE IV B was measured at different concentrations of the instant compounds.

IC50 [nM] | Structure (SMILES)
18 | COc1ccc(C(C)Cn2ccnc2NC#N)cc1OC1Cc2ccccc2C1 (single isomer, unassigned; (+)) [Compound 16, (+)-(A)-[1-[2-[3-[(2,3-dihydro-1H-inden-2-yl)oxy]-4-methoxy-phenyl]-propyl]-1H-imidazol-2-yl]cyanamide]
30 | COc1ccc(C(C)Cn2ccnc2NC#N)cc1OC1Cc2ccccc2C1 (single isomer, unassigned; (-)) [Compound 17, (-)-(B)-[1-[2-[3-[(2,3-dihydro-1H-inden-2-yl)oxy]-4-methoxy-phenyl]propyl]-1H-imidazol-2-yl]cyanamide]
